Legend:
Type in all cases: cell-based
[1] = target: T1, human glucagon-like peptide 2 receptor (GLP2R) (Homo sapiens, UniProt O95838); test: CRE-luciferase reporter assay, HEK293/Myc-hGLP2R/Cre-Luc (Example 9); conditions: read-out: HEK293/Myc-hGLP2R/Cre-Luc EC50, Table 9
T1 construct: full-length human GLP1R, cynomolgus GLP1R, human glucagon receptor (GCGR), human glucagon-like peptide 2 receptor (GLP2R); expressed in transfected cells; host or cells: HEK293/CRE-Luc
T1 sequence (O95838 1-553): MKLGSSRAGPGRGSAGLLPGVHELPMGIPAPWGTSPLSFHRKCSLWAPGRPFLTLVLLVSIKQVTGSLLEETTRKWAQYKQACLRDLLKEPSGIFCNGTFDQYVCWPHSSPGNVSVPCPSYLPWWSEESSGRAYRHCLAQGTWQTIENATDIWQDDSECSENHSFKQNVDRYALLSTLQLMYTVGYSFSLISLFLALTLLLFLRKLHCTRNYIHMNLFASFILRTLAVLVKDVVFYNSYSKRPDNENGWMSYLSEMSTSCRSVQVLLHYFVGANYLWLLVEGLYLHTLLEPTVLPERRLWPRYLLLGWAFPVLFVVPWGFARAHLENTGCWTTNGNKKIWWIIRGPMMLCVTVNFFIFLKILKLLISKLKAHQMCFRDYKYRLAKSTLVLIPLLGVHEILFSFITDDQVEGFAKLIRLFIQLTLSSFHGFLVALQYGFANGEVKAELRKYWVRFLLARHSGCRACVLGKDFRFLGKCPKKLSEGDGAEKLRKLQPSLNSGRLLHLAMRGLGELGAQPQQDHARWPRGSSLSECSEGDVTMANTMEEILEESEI

Amino acid sequences for entries named in this document (tags omitted). Residues count along the entry.
UniProt F8V479, 24-463: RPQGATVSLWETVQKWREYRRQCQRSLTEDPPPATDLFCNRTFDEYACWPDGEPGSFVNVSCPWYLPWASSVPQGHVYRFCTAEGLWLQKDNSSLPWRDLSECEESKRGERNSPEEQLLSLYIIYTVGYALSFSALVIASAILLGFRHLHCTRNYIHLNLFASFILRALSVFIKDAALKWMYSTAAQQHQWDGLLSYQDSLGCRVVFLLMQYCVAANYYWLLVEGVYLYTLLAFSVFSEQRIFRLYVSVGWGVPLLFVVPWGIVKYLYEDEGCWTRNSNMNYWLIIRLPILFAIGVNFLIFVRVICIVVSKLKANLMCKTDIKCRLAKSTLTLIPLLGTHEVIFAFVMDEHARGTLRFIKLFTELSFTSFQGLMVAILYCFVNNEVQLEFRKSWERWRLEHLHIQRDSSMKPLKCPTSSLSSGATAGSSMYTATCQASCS
UniProt P47871, 26-477: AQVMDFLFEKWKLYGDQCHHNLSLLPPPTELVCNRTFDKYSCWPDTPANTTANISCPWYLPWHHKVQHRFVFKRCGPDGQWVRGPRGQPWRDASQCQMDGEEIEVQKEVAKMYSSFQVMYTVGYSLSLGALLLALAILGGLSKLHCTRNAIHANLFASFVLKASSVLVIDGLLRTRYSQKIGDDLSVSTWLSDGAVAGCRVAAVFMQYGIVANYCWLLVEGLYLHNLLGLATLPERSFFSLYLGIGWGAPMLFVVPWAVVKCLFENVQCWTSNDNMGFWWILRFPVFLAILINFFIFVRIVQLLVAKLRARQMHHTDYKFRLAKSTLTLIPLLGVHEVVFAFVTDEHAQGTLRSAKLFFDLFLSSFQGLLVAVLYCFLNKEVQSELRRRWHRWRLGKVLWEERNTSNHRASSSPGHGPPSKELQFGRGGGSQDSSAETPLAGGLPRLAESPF
UniProt P43220, 24-463: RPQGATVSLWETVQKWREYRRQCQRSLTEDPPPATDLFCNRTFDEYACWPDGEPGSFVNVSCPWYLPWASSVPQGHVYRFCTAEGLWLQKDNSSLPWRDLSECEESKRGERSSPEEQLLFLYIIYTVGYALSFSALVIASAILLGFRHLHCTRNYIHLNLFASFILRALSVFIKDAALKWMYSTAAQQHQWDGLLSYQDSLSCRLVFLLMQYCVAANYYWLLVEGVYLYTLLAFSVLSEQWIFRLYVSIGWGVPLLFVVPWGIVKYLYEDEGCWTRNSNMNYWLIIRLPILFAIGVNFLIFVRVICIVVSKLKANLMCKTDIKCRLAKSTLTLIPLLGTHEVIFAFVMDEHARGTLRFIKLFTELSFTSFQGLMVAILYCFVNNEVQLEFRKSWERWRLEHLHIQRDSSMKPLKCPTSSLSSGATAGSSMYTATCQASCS

cynomolgus GLP1R = target: T2, cynomolgus GLP1R (Macaca fascicularis, UniProt F8V479); test: Luciferase reporter assay, HEK293/CRE-Luc/mfGLP1R (Example 17); conditions: read-out: HEK293/CRE-Luc/mfGLP1R EC50; Table 28; CRE-dependent luciferase reporter activity
T2 construct: engineered to express full-length human GLP1R, cynomolgus GLP1R; expressed in transfected cells; host or cells: HEK293/CRE-Luc

[2] = target: T1, human glucagon-like peptide 2 receptor (GLP2R); test: Luciferase reporter assay, HEK293/CRE-Luc/hGLP2R (Example 17)
[3] = target: T3, human glucagon receptor (GCGR) (Homo sapiens, UniProt P47871); test: Luciferase reporter assay, HEK293/CRE-Luc/hGCGR (Example 17); conditions: read-out: HEK293/CRE-Luc/hGCGR EC50; Table 28; CRE-dependent luciferase reporter activity
T3 construct: full-length human GLP1R, cynomolgus GLP1R, human glucagon receptor (GCGR); expressed in transfected cells; host or cells: HEK293/CRE-Luc

[4] = target: T4, human gastric inhibitory polypeptide receptor (GIPR) (Homo sapiens, UniProt P48546); test: Luciferase reporter assay, HEK293/CRE-Luc/hGIPR (Example 17); set-up: expressed in transfected cells; host or cells: HEK293/CRE-Luc; conditions: read-out: HEK293/CRE-Luc/hGlPR EC50; Table 28; CRE-dependent luciferase reporter activity
T4 sequence (P48546 22-466): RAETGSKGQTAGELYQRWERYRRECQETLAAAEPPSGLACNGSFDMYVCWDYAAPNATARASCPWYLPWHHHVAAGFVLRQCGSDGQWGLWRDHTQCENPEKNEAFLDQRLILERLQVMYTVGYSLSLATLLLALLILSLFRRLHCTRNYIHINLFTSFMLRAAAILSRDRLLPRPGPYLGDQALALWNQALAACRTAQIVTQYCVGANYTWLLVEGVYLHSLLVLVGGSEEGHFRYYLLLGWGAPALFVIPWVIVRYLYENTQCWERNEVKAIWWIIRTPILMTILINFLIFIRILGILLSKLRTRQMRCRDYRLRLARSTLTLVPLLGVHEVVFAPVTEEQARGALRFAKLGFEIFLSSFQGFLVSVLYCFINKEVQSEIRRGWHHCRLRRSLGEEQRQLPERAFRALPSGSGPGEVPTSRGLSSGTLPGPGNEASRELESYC

human GLP1R = human GLP1R (Homo sapiens, UniProt P43220); test: Luciferase reporter assay, HEK293/CRE-Luc/hGLP1R (Example 17); set-up: engineered to express full-length human GLP1R, cynomolgus GLP1R; expressed in transfected cells; host or cells: HEK293/CRE-Luc; conditions: Table 28; CRE-dependent luciferase reporter activity
[5] = read-out: HEK293/CRE-Luc/hGLP2R EC50, Table 28, CRE-dependent luciferase reporter activity

Row | Substance | EC50 [1] | EC50 (cynomolgus GLP1R) | EC50 ([2]; read-out: EC50 / activity, HEK293/CRE-Luc/hGLP2R, text b1834 (Table 28)) | EC50 [2, 5] | EC50 [3] | EC50 [4] | EC50 (human GLP1R)
1 | GLP2 | 0.0123 nM | > 200 nM | 1.09 nM | 1.09 nM | > 200 nM | > 200 nM | > 200 nM
2 | GIP |  | > 200 nM |  | > 200 nM | > 200 nM |  | 
3 | GCG [reference compound] |  |  |  | > 200 nM |  | > 200 nM | 
